# Ab-14 light chain CDR variants: yeast mating affinities

Binding partner: SARS-CoV-2 spike HR2 peptide, sequence PDVDLGDISGINAS.

Each scFv is VH, a 15-residue (Gly4Ser)3 linker, VL, as in the parent Ab-14, and differs from it in the CDRs of the light chain only.
VH: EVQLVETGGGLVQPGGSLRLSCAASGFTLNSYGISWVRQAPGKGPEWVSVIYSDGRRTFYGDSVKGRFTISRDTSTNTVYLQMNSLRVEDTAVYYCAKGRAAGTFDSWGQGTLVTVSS
VL: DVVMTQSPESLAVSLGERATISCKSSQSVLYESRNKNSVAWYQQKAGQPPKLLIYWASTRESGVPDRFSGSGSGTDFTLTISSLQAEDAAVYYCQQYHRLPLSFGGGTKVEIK

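The parent was found by panning a naive human phage display library on the peptide. These sequences belong to a second round, designed from the earlier measurements on random variants of the parent. Several design methods are mixed in this list. Affinity was read by AlphaSeq, a pooled yeast mating assay with surface-displayed partners. Binding brings cells together so that they mate, and sequencing counts the barcode pairs among the diploids. Scores were corrected for input abundance and mapped to Kd with protein pairs of known affinity run in the same pool. There are six technical replicates.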

The parent's light chain CDRs are KSSQSVLYESRNKNSVA, WASTRES, QQYHRLPLS; each variant's own CDRs replace them letter for letter. This list holds designs with more than six substitutions. Affinities are written as log10 Kd with Kd in nM; a lower number is a better binder. Replicates are averaged; those with no signal do not enter the mean. A pair that was not seen in any replicate is written "no signal"; this usually means weak binding, but a binder can also be missed. In the paper, a design with two or fewer of six values counts as a poor binder. The parent sequence was in this pool as ten entries: three were never detected, three once, and four in most replicates, with averages from 0.34 to 2.37. A sequence measured in both rounds can read differently, since the two assays cover different ranges. As a blank, each scFv also met three strains without target: over all light chain designs, 4% of these pairings were detected, typically at 2.64 and seldom below 1.59. Also given: how often the same scFv was detected with the empty control strains.

For LLWQDMYNGRNQANAVA, EGNILAN, QQYARLPFS, the assay gave 0.56 (6 of 6 replicates; controls 1 of 18).
For KLYFNVGTVAHNTQSIA, DMERREE, QQYHRLPLS, the assay gave no signal (0 of 6 replicates; controls 0 of 18).
For KLSLVLGESKQSEKNIA, NMRVSVA, QQYDTLPLT, the assay gave 1.89 (1 of 6 replicates; controls 0 of 18).
For KVSQSMDYESRNKNSVA, EASDRLS, QDYHRLPLS, the assay gave 0.81 (6 of 6 replicates; controls 2 of 18).
For TLTQSVGMETHNKNSVA, DLSTRGS, QQYHRLPLS, the assay gave 0.21 (6 of 6 replicates; controls 2 of 18).
For KLSQSDGYEQRNSNSVA, HASTRED, QQYHRLPLS, the assay gave -0.26 (6 of 6 replicates; controls 1 of 18).
For KISQMVNYETTHINAVA, QMSTREE, QQYFRLPLS, the assay gave 1.18 (6 of 6 replicates; controls 0 of 18).
For KLSATTRYESQNKNSIA, EMTTRES, QCYHRLPLS, the assay gave 0.79 (6 of 6 replicates; controls 0 of 18).
For KLEDSNRWNLRGTNAVA, QASTRAA, QQYQRLPFL, the assay gave 0.09 (6 of 6 replicates; controls 2 of 18).
For HLSIKLPGNWYMGDSVA, HSERRAE, QQYARLPLG, the assay gave 0.24 (6 of 6 replicates; controls 2 of 18).
For KIGGTLNTLMHQKNNVA, DLVMREN, QQYHRLPLS, the assay gave 0.24 (6 of 6 replicates; controls 0 of 18).
For KLSQSDLYEDRNLNNVA, NASQRES, QQYHRLPLM, the assay gave 0.13 (6 of 6 replicates; controls 0 of 18).
For TISQLMNMGQFAINSVA, QAEMRNA, QQYDRLPLI, the assay gave 0.74 (6 of 6 replicates; controls 0 of 18).
For TISMHTSLFSQTINNVA, EVSTREQ, QQYDRLPLM, the assay gave 0.96 (6 of 6 replicates; controls 0 of 18).
For KLGGVTEYEMRNSNSVA, QMTTRES, QQYHRLPLS, the assay gave 0.65 (6 of 6 replicates; controls 0 of 18).
For KLDQDDLYENRNCNSVA, QASTREQ, QQYHRLPLS, the assay gave -0.13 (6 of 6 replicates; controls 0 of 18).
For HLGMATMLEETKRNSVA, NNSTREQ, QQYDRLPLS, the assay gave 1.17 (5 of 6 replicates; controls 0 of 18).
For KISMMYRFEQTASNNIA, EMTTRAE, QSYHRLPLA, the assay gave 1.38 (6 of 6 replicates; controls 2 of 18).
For KIGGVTNGISRSTNSVA, EQSTRED, QQYNRLPLS, the assay gave 0.44 (6 of 6 replicates; controls 2 of 18).
For HMRSGSVEQWNIENAVA, EMSEVYR, QQYVSLPLS, the assay gave no signal (0 of 6 replicates; controls 0 of 18).
For HVPNYPENFRSAKDNIA, DTSATTS, QQYDRLPLA, the assay gave 0.52 (6 of 6 replicates; controls 2 of 18).
For TISTSFLMENQFKNSVA, QASTRES, QCYDRLPLS, the assay gave 1.99 (6 of 6 replicates; controls 1 of 18).
For KVQQMWLYGSRNKNSVA, DASQREE, QQYHRLPLS, the assay gave -0.06 (6 of 6 replicates; controls 0 of 18).
For HMSALTLGGMRMRNSVA, QMTTREN, QQYDRLPLA, the assay gave 0.66 (6 of 6 replicates; controls 1 of 18).
For KMMNSLGAFKQSEDNVA, NVEQKVA, QQYDHLPLT, the assay gave 0.11 (6 of 6 replicates; controls 1 of 18).
For KLSQQMLYESRNKNSVA, NASLRLS, QCYHRLPLS, the assay gave 0.78 (6 of 6 replicates; controls 2 of 18).
For NLSIQNQPQNMFANNVA, QTESRCE, QQYFMLPLA, the assay gave 0.24 (6 of 6 replicates; controls 1 of 18).
For KLQWQQYGENAMEAAIA, NEQTVAQ, QQYSKLPLT, the assay gave no signal (0 of 6 replicates; controls 0 of 18).
For TLYGLSMSMSKEKNNVA, EMSTREN, QQYDRLPLI, the assay gave 0.85 (6 of 6 replicates; controls 0 of 18).
For MISQIYNMGQFAINSVA, QASLRND, QQYDRLPLT, the assay gave 2.01 (6 of 6 replicates; controls 0 of 18).
For HISPSFMVESRLKNSVA, QTTTRES, QQYDRLPLS, the assay gave 0.34 (6 of 6 replicates; controls 2 of 18).
For HINTLDVGVSDHYNAVA, EQRAAGI, QQYFRLPLS, the assay gave 1.81 (6 of 6 replicates; controls 0 of 18).
For KVDQSNLYEQRNKNSVA, SASLRFS, QQYHRLPLS, the assay gave 0.36 (6 of 6 replicates; controls 0 of 18).
For MISQLYNMGTFAINSVA, QASIRNE, QQYDRLPLQ, the assay gave 0.91 (6 of 6 replicates; controls 0 of 18).
For KLSATYRYESQNKNSIA, EMSTREA, QCYHRLPLS, the assay gave 2.14 (5 of 6 replicates; controls 0 of 18).
For IMSDSQERDASRLRNIA, DQTTRAM, QQYARLPLS, the assay gave -0.30 (6 of 6 replicates; controls 1 of 18).
For KQQQLVWYEQRNKNSVA, DGSTRES, QQYHRLPLS, the assay gave 0.09 (6 of 6 replicates; controls 2 of 18).
For MITAAPNAYGGNRSNIA, DKEISLN, QQYHHLPLS, the assay gave 0.28 (6 of 6 replicates; controls 2 of 18).
For KLSQFYRMESRNKNSVA, DNSTREY, QDYDRLPLS, the assay gave no signal (0 of 6 replicates; controls 1 of 18).
For KLMDNPWVEDKYRNNIA, DIETKAI, QHYHRLPLL, the assay gave 1.45 (6 of 6 replicates; controls 1 of 18).
For MVTMELRYGDEWQNPIA, NASHKEA, QQYDHLPLG, the assay gave 0.97 (6 of 6 replicates; controls 3 of 18).
For NLGFVDANDNRGMMNVA, DVNTVGE, QQYNRLPLA, the assay gave 0.34 (6 of 6 replicates; controls 0 of 18).
For KDMQSWLYWSRNKNSVA, NASQREH, QQYHRLPLS, the assay gave 0.94 (6 of 6 replicates; controls 2 of 18).
For SISQFMKSLSAHINNVA, DMTNRED, QQYDRLPLS, the assay gave 0.41 (6 of 6 replicates; controls 3 of 18).
For MIEEGHAGEIKNSSNIA, SQDQKTD, QQYQRLPLI, the assay gave 1.54 (6 of 6 replicates; controls 4 of 18).
For KIGQTLNQLMHQKNNVA, DLVTREQ, QQYHRLPLS, the assay gave 0.74 (6 of 6 replicates; controls 0 of 18).
For KISDSAAFLSRNRNSVA, DNSTRGS, QQYHRLPLS, the assay gave 0.67 (6 of 6 replicates; controls 1 of 18).

A selection of 5 entries from above:

Variant KIGGVTNGISRSTNSVA, EQSTRED, QQYNRLPLS gave 0.44 (6 of 6 replicates; controls 2 of 18).
Variant KVQQMWLYGSRNKNSVA, DASQREE, QQYHRLPLS gave -0.06 (6 of 6 replicates; controls 0 of 18).
Variant MIEEGHAGEIKNSSNIA, SQDQKTD, QQYQRLPLI gave 1.54 (6 of 6 replicates; controls 4 of 18).
Variant KLEDSNRWNLRGTNAVA, QASTRAA, QQYQRLPFL gave 0.09 (6 of 6 replicates; controls 2 of 18).
Variant KDMQSWLYWSRNKNSVA, NASQREH, QQYHRLPLS gave 0.94 (6 of 6 replicates; controls 2 of 18).

From the AlphaSeq antibody data of Li et al. 2023 (doi:10.1038/s41467-023-39022-2), copy in the FLAb collection.